Patent US20090004101A1, “Method and Means for Enhanced Pulmonary Drug Delivery” (UNIVERSITY COLLEGE CARDIFF CONSULTANTS LIMITED, priority 2004, published 2009)

Columns and labels:
[1] = Pulmonary absorption of human insulin co-administered intratracheally with P2Y receptor agonists to anesthetized rabbits (plasma insulin by radioimmunoassay); details: insulin 10 U/kg intratracheal alone, rabbit, mean±SD
Description: Briefly, New Zealand white rabbits were anesthetized with Hypnovel (Roche, Welwyn Garden City, UK), 0.3 mg/kg i.v. via cannula in the ear, and Hypnorrn (Janssen Animal Health, Grove, Oxford, UK), 0.1 mg/kg via intramuscular injection. Once intubated with a polyethylene endotracheal tube (i.d. 4 mm, o.d. 5 mm; Portex, UK) coated with a layer of xylocalne gel (Astra Pharmaceuticals, Kings Langley, UK), a second, smaller polyethylene dosing tube was inserted inside the endotracheal tube to the point of the bifurcation of the trachea.

[2] = man, pulmonary delivery; cited from earlier work

For Insulin, the Cmax of insulin ([1]; n=4 (UTP study)) was 440 ± 44.6 μU/mL, the “F (bioavailable fraction) of insulin” value ([1]; n=4 (UTP study)) was 4.48 ± 0.13% and the t1/2 of insulin ([1]; n=4 (UTP study)) was 44.9 ± 11.51 min. For the same substance, the Cmax of insulin ([1]; n=4 (Up4U study)) was 527 ± 42.2 μU/mL, the “F (bioavailable fraction) of insulin” value ([1]; n=4 (Up4U study)) was 3.75 ± 0.84% and the t1/2 of insulin ([1]; n=4 (Up4U study)) was 35.4 ± 3.41 min. The “Insulin deposited in the lungs that reaches the systemic circulation” value [2] was 20-46%.
